Experimental data taken from patent US20240245770A1, “COMPOSITIONS AND METHODS FOR TREATING NEUROMUSCULAR DISORDERS” (The Regents of the University of California, priority 2019, published 2024).

Columns and labels:
[1] = tested on: oral squamous carcinoma stem cells (OSCSCs); experiment: 51Cr release cytotoxicity of treated purified NK cells against OSCSCs; assay type: cell-based, human
Procedure: The ^51Cr release assay was performed as described previously. Patient-derived OSCSCs were used as a specific and sensitive NK targets to assess NK cell-mediated cytotoxicity. Briefly, different numbers of effector cells were incubated with ^51Cr-labeled OSCSCs. After 4-hour incubation the supernatants were harvested from each sample and counted on a gamma counter. The percentage specific cytotoxicity was calculated using the following formula:
Lytic unit 30/10^6 is calculated by using the inverse of the number of effector cells needed to lyse 30% of tumor target cells×100.
NK cells were isolated from PBMCs as described in the materials and methods section. Purified NK cells were left untreated, or treated with IL-2 (1000 U/mL) or treated with the combination of IL-2 and anti-CD16 mAb (3 μg/ml). After an overnight incubation, the NK cell mediated cytotoxicity was measured using a standard 4-hour chromium release assay against oral squamous carcinoma stem cells (OSCSCs). The lytic units 30/10^6 cells were determined using inverse number of NK cells required to lyse 30% of the target cells×100. No significant differences in NK cytotoxicity by purified NK cells between the donors (FIG. 2C).
NK cytotoxicity. NK cells were isolated from PBMCs as described in the materials and methods section. Purified NK cells were left untreated, or treated with IL-2 (1000 U/mL) or treated with the combination of IL-2 and anti-CD16 mAb (3 μg/ml) or IL-2+sAJ2 (Cells:sAJ2 1:20). After an overnight incubation, the NK cell mediated cytotoxicity was measured using a standard 4-hour chromium release assay against oral squamous carcinoma stem cells (OSCSCs). The lytic units 30/10^6 cells were determined using inverse number of NK cells required to lyse 30% of the target cells×100 (Table 19).

purified CD4+ T cells = experiment: CD4 T cell ELISA, IFN-γ secretion; assay type: cell-based, human
Procedure: PBMC and CD4 T cell ELISA. PBMCs and purified CD4+ T cells were left untreated, treated with IL-2 (1000 U/mL) or treated with the combination of IL-2 and anti-CD16 mAb (3 μg/ml), IL-2+anti-CD3/28 antibodies (25 μl/mL) or IL-2+sAJ2 (Cells:sAJ2 1:20). After an overnight treatment at 37° C., the supernatants were harvested and the levels of IFN-γ secretion were measured using ELISA (Tables 44-45).

Recombinant human IL-2
NK cytotoxicity ([1]; H66 JC (ALS) NK): 117.87 lytic units 30/10^6 cells
NK cell cytotoxicity ([1]; H80 DM NK): 25.28 lytic units 30/10^6 cells
NK cell cytotoxicity ([1]; H81 JC (ALS) NK): 44.80 lytic units 30/10^6 cells
NK cell cytotoxicity ([1]; H82 TC (healthy twin) NK): 36.37 lytic units 30/10^6 cells
NK cytotoxicity ([1]; H84 JC NK alone): 104.22 lytic units 30/10^6 cells
NK cytotoxicity ([1]; H85 TC NK alone): 72.62 lytic units 30/10^6 cells
NK cytotoxicity in purified NK cells, Mean ([1]; H171 JC NK, ALS): 57.06
NK cytotoxicity in purified NK cells, Mean ([1]; H172 TC NK, control twin): 69.13
cytotoxicity of NK cells, Mean ([1]; H174 JC NK, ALS): 142.1
cytotoxicity of NK cells, Mean ([1]; H175 TC NK, control twin): 154.9
NK cytotoxicity, Mean ([1]; H195 RS NK, Table 204): 17.21
NK cytotoxicity, Mean ([1]; H196 TC NK, Table 204): 19.53
NK cytotoxicity, Mean ([1]; H211 JC NK (ALS patient)): 81.51
NK cytotoxicity, Mean ([1]; H213 JC NK (ALS patient)): 157.04
NK cytotoxicity, Mean ([1]; H214 TC NK (twin control)): 80.80
NK cell cytotoxicity ([1]; KZ sNK (day 17)): 89.02 lytic units 30/10^6 cells
LU AVERAGE ([1]; NK H140 JC): 167.50 LU 30/106 cells
LU AVERAGE ([1]; NK H141 RS): 14.79 LU 30/106 cells
LU AVERAGE ([1]; NK H142 JS): 58.61 LU 30/106 cells
lytic units 30/10^6 cells, Mean ([1]; NK H143 JC): 117.46 lytic units 30/10^6 cells
lytic units 30/10^6 cells, Mean ([1]; NK H144 TC): 205.18 lytic units 30/10^6 cells
lytic units 30/10^6 cells, Mean ([1]; NK H145 WO): 171.54 lytic units 30/10^6 cells
NK cytotoxicity, Mean ([1]; NK cells of H109 RS1 (ALS patient, Pre-NAC)): 331.64 lytic units 30/10^6 cells
NK cytotoxicity, Mean ([1]; NK cells of H110 RS2 (ALS patient, Post-NAC)): 373.11 lytic units 30/10^6 cells
NK cytotoxicity, Mean ([1]; NK cells of H111 AK (control)): 131.16 lytic units 30/10^6 cells
NK cytotoxicity, Mean ([1]; NK cells of H117 JC (ALS)): 36.93 lytic units 30/10^6 cells
NK cytotoxicity, Mean ([1]; NK cells of H118 TC (control twin)): 55.72 lytic units 30/10^6 cells
NK cytotoxicity, Mean ([1]; NK cells of P99 ME (control)): 72.37 lytic units 30/10^6 cells
51Cr release NK Mean ([1]; NK of H102 JC): 49.62 lytic units 30/10^6 cells
51Cr release NK Mean ([1]; NK of H103 TC): 157.59 lytic units 30/10^6 cells
51Cr release NK Mean ([1]; NK of H104 RS (another patient with ALS)): 144.55 lytic units 30/10^6 cells
NK cytotoxicity ([1]; P66 LP NK): 218.17 lytic units 30/10^6 cells
NK cell cytotoxicity ([1]; P82 SS NK): 37.57 lytic units 30/10^6 cells
lytic units 30/10^6 cells, Mean ([1]; P113 HA NK): 218.54 lytic units 30/10^6 cells
Lytic units, Mean ([1]; P153 NK): 94.51 Lu70/10^6
NK cell cytotoxicity ([1]; RO sNK (day 17)): 45.50 lytic units 30/10^6 cells
NK cell mediated cytotoxicity ([1]; Table 6, H53 NK alone, row 2.5): 26.5
NK cell mediated cytotoxicity ([1]; Table 6, H53 NK alone, row 5): 43.7
NK cell mediated cytotoxicity ([1]; Table 7, H53 NK alone, row 2.5): 26.5
NK cell mediated cytotoxicity ([1]; Table 7, H53 NK alone, row 5): 43.7
NK cell mediated cytotoxicity ([1]; Table 8, H53 NK alone, row 2.5): 26.5
NK cell mediated cytotoxicity ([1]; Table 8, H53 NK alone, row 5): 43.7
NK cell mediated cytotoxicity ([1]; Table 10, H52 TC NK alone, row 2.5): 51.4
NK cell mediated cytotoxicity ([1]; Table 10, H52 TC NK alone, row 5): 77.7
NK cell mediated cytotoxicity ([1]; Table 11, H52 TC NK alone, row 2.5): 51.4
NK cell mediated cytotoxicity ([1]; Table 11, H52 TC NK alone, row 5): 77.7
NK cytotoxicity, Mean ([1]; printed H211 JC NK): 46.58
IFN-γ secretion (ELISA) (purified CD4+ T cells; H88 JC CD4, Day1, 1:8 dilution): 371.58
IFN-γ secretion (ELISA) (purified CD4+ T cells; H88 JC CD4, Day4, 1:8 dilution): 326.06
IFN-γ secretion (ELISA) (purified CD4+ T cells; H88 JC CD4, Day10, 1:8 dilution): 437.34
IFN-γ secretion (ELISA) (purified CD4+ T cells; H88 JC CD4, Day12, 1:8 dilution): 505.12
IFN-γ secretion (ELISA) (purified CD4+ T cells; H89 TC CD4, Day1, 1:8 dilution): 470.72
IFN-γ secretion (ELISA) (purified CD4+ T cells; H89 TC CD4, Day4, 1:8 dilution): 547.61
IFN-γ secretion (ELISA) (purified CD4+ T cells; H89 TC CD4, Day10, 1:8 dilution): 612.35
IFN-γ secretion (ELISA) (purified CD4+ T cells; H89 TC CD4, Day12, 1:8 dilution): 622.47
